In US12240855B2, “Pyrrolopyrazole derivative” (DAIICHI SANKYO COMPANY, LIMITED, priority 2019, dated 2025):

Key:
HCT116 cells = assay: cells; settings: Homo sapiens, HCT-116, 72 h, read-out: Test Example 3 HCT116 GI50
[1] = system: PTDSS2 gene-disrupted (PTDSS2-KO) HCT116 cells; assay: cells; settings: Homo sapiens, HCT-116, 72 h, read-out: Test Example 3 PTDSS2-KO HCT116 GI50

Compound	GI50 (HCT116 cells) [µM]	GI50 [1] [µM]
COC(c1ccccc1)c1ccc(C2c3c(-c4cccc5[nH]c(=O)oc45)n[nH]c3C(=O)N2CC(C)(F)F)cc1 (mixture of isomers) [Example 90, 7-[5-(2,2-Difluoropropyl)-4-{4-[methoxy(phenyl)methyl]phenyl}-6-oxo-1,4,5,6-tetrahydropyrrolo[3,4-c]pyrazol-3-yl]-1,3-benzoxazol-2(3H)-one (mixture of diastereomers)]	16	0.8
O=C1c2[nH]nc(-c3cccc4[nH]c(=O)oc34)c2C(c2cc(Oc3ccccc3)ccc2F)N1CC1CC1 (single isomer, unassigned) [Example 1, 7-[5-(Cyclopropylmethyl)-4-(2-fluoro-5-phenoxy]phenyl)-6-oxo-1,4,5,6-tetrahydropyrrolo[3,4-c]pyrazol-3-yl-1,3-benzoxazol-2(3H)-one (enantiomer)]	24	0.036
CCc1cc(C2c3c(-c4cccc5[nH]c(=O)oc45)n[nH]c3C(=O)N2CC(C)(F)F)ccc1Cl (single isomer, unassigned) [Example 17, 7-[4-(4-Chloro-3-ethylphenyl)-5-(2,2-difluoropropyl)-6-oxo-1,4,5,6-tetrahydropyrrolo[3,4-c]pyrazol-3-yl]-1,3-benzoxazol-2(3H)-one (enantiomer)]	13	0.047
Cc1cc(C2c3c(-c4cccc5[nH]c(=O)oc45)n[nH]c3C(=O)N2CC(C)(F)F)cc(C)c1Cl (single isomer, unassigned) [Example 18, 7-[4-(4-Chloro-3,5-dimethylphenyl)-5-(2,2-difluoropropyl)-6-oxo-1,4,5,6-tetrahydropyrrolo[3,4-c]pyrazol-3-yl]-1,3-benzoxazol-2(3H)-one (enantiomer)]	12	0.054
CC(F)(F)CN1C(=O)c2[nH]nc(-c3cccc4[nH]c(=O)oc34)c2C1c1ccc(Cl)c(C2CC2)c1 (single isomer, unassigned) [Example 19, 7-[4-(4-Chloro-3-cyclopropylphenyl)-5-(2,2-difluoropropyl)-6-oxo-1,4,5,6-tetrahydropyrrolo[3,4-c]pyrazol-3-yl]-1,3-benzoxazol-2(3H)-one (enantiomer)]	11	0.062
CC(F)(F)CN1C(=O)c2[nH]nc(-c3cccc4[nH]c(=O)oc34)c2C1c1ccc(Cl)cc1 (single isomer, unassigned) [Example 20, 7-[4-(4-Chlorophenyl)-5-(2,2-difluoropropyl)-6-oxo-1,4,5,6-tetrahydropyrrolo[3,4-c]pyrazol-3-yl]-1,3-benzoxazol-2(3H)-one (enantiomer)]	17	0.23
CCCCCCc1ccc(C2c3c(-c4cccc5[nH]c(=O)oc45)n[nH]c3C(=O)N2CC(C)(F)F)cc1 (single isomer, unassigned) [Example 21, 7-[(4)-5-(2,2-Difluoropropyl)-4-(4-hexylphenyl)-6-oxo-1,4,5,6-tetrahydropyrrolo[3,4-c]pyrazol-3-yl]-1,3-benzoxazol-2(3H)-one (enantiomer)]	8.4	0.028
CC(F)(F)CN1C(=O)c2[nH]nc(-c3cccc4[nH]c(=O)oc34)c2C1c1ccc(OC(F)(F)F)cc1 (single isomer, unassigned) [Example 22, 7-{5-(2,2-Difluoropropyl)-6-oxo-4-[4-(trifluoromethoxy)phenyl]-1,4,5,6-tetrahydropyrrolo[3,4-c]pyrazol-3-yl]-1,3-benzoxazol-2(3H)-one (enantiomer)]	21	0.86
Cc1nc(C2c3c(-c4cccc5[nH]c(=O)oc45)n[nH]c3C(=O)N2CC(C)(F)F)ccc1F (single isomer, unassigned) [Example 23, 7-[5-(2,2-Difluoropropyl)-4-(5-fluoro-6-methylpyridin-2-yl)-6-oxo-1,4,5,6-tetrahydropyrrolo[3,4-c]pyrazol-3-yl]-1,3-benzoxazol-2(3H)-one (enantiomer)]		2.1
CC(F)(F)CN1C(=O)c2[nH]nc(-c3cccc4[nH]c(=O)oc34)c2C1c1cnc(C(F)(F)F)s1 (single isomer, unassigned) [Example 24, 7-{5-(2,2-Difluoropropyl)-6-oxo-4-[2-(trifluoromethyl)-1,3-thiazol-5-yl]-1,4,5,6-tetrahydropyrrolo[3,4-c]pyrazol-3-yl}-1,3-benzoxazol-2(3H)-one (enantiomer)]		2.5
Cc1cc(C2c3c(-c4cccc5[nH]c(=O)oc45)n[nH]c3C(=O)N2CC(C)(F)F)ccc1OCCCC(F)(F)F (single isomer, unassigned) [Example 25, 7-{(5-(2,2-Difluoropropyl)-4-[3-methyl-4-(4,4,4-trifluorobutoxy)phenyl]-6-oxo-1,4,5,6-tetrahydropyrrolo[3,4-c]pyrazol-3-yl}-1,3-benzoxazol-2(3H)-one (enantiomer)]	8.9	0.025
CC(F)(F)CN1C(=O)c2[nH]nc(-c3cccc4[nH]c(=O)oc34)c2C1c1ccc(Oc2ccc(OC(F)(F)F)c(F)c2)cc1 (single isomer, unassigned) [Example 35, 7-{5-(2,2-Difluoropropyl)-4-{4-[3-fluoro-4-(trifluoromethoxy)phenoxy]phenyl}-6-oxo-1,4,5,6-tetrahydropyrrolo[3,4-c]pyrazol-3-yl]-1,3-benzoxazol-2(3H)-one (enantiomer)]	7.4	0.038
CC(F)(F)CN1C(=O)c2[nH]nc(-c3cccc4[nH]c(=O)oc34)c2C1c1ccc(Oc2ccc(F)c(OC(F)(F)F)c2)cc1 (single isomer, unassigned) [Example 36, 7-[5-(2,2-Difluoropropyl)-4-{4-[4-fluoro-3-(trifluoromethoxy)phenoxy]phenyl}-6-oxo-1,4,5,6-tetrahydropyrrolo[3,4-c]pyrazol-3-yl]-1,3-benzoxazol-2(3H)-one (enantiomer)]	8	0.014
Cc1cc(Oc2ccc(OC(F)(F)F)c(Cl)c2)ccc1C1c2c(-c3cccc4[nH]c(=O)oc34)n[nH]c2C(=O)N1CC(C)(F)F (single isomer, unassigned) [Example 37, 7-[4-{4-[3-Chloro-4-(trifluoromethoxy)phenoxy]-2-methylphenyl}-5-(2,2-difluoropropyl)-6-oxo-1,4,5,6-tetrahydropyrrolo[3,4-c]pyrazol-3-yl]-1,3-benzoxazol-2(3H)-one (enantiomer)]	8.7	0.056
CC(F)(F)CN1C(=O)c2[nH]nc(-c3cccc4[nH]c(=O)oc34)c2C1c1ccc(Oc2ccc(C(F)(F)F)cc2C(F)(F)F)cc1 (single isomer, unassigned) [Example 38, 7-[4-{4-[2,4-Bis(trifluoromethyl)phenoxy]phenyl}-5-(2,2-difluoropropyl)-6-oxo-1,4,5,6-tetrahydropyrrolo[3,4-c]pyrazol-3-yl]-1,3-benzoxazol-2(3H)-one (enantiomer)]	9.2	0.073
CC(F)(F)CN1C(=O)c2[nH]nc(-c3cccc4[nH]c(=O)oc34)c2C1c1ccc(Oc2cc(C(F)(F)F)cc(C(F)(F)F)c2)cc1F (single isomer, unassigned) [Example 66, 7-[4-{4-[3,5-Bis(trifluoromethyl)phenoxy]-2-fluorophenyl}-5-(2,2-difluoropropyl)-6-oxo-1,4,5,6-tetrahydropyrrolo[3,4-c]pyrazol-3-yl]-1,3-benzoxazol-2(3H)-one (enantiomer)]		0.016
CC(F)(F)CN1C(=O)c2[nH]nc(-c3cccc4[nH]c(=O)oc34)c2C1c1ccc(CN2CCC(F)(F)CC2)cc1 (single isomer, unassigned) [Example 83, 7-[4-{4-[(4,4-Difluoropiperidin-1-yl)methyl]phenyl}-5-(2,2-difluoropropyl)-6-oxo-1,4,5,6-tetrahydropyrrolo[3,4-c]pyrazol-3-yl]-1,3-benzoxazol-2(3H)-one (enantiomer)]		0.26
O=C1c2[nH]nc(-c3cccc4[nH]c(=O)oc34)c2C(c2cccc(Oc3ccccc3)c2)N1Cc1ncco1 (stereo not drawn) [Example 12, 7-{5-[(1,3-Oxazol-2-yl)methyl]-6-oxo-4-(3-phenoxyphenyl)-1,4,5,6-tetrahydropyrrolo[3,4-c]pyrazol-3-yl}-1,3-benzoxazol-2(3H)-one]		0.66
O=C1c2[nH]nc(-c3cc(Oc4ccccc4)cc4[nH]c(=O)oc34)c2C(c2ccc(F)cc2)N1CC(F)(F)F (stereo not drawn) [Example 15, 7-[4-(4-Fluorophenyl)-6-oxo-5-(2,2,2-trifluoroethyl)-1,4,5,6-tetrahydropyrrolo[3,4-c]pyrazol-3-yl]-5-phenoxy-1,3-benzoxazol-2(3H)-one]		14
CC(F)(F)CN1C(=O)c2[nH]nc(-c3cccc4[nH]c(=O)oc34)c2C1c1ccnc(Oc2ccccc2)c1 (stereo not drawn) [Example 72, 7-[5-(2,2-Difluoropropyl)-6-oxo-4-(2-phenoxypyridin-4-yl)-1,4,5,6-tetrahydropyrrolo[3,4-c]pyrazol-3-yl]-1,3-benzoxazol-2(3H)-one]		0.28
CC(F)(F)CN1C(=O)c2[nH]nc(-c3cccc4[nH]c(=O)oc34)c2C1c1ccc(Oc2ccc(Cl)cc2)cn1 (stereo not drawn) [Example 77, 7-{4-[5-(4-Chlorophenoxy)pyridin-2-yl]-5-(2,2-difluoropropyl)-6-oxo-1,4,5,6-tetrahydropyrrolo[3,4-c]pyrazol-3-yl]-1,3-benzoxazol-2(3H)-one]		1
CC(F)(F)CN1C(=O)c2[nH]nc(-c3cccc4[nH]c(=O)oc34)c2C1c1cc(Oc2ccc(F)cc2)ccn1 (stereo not drawn) [Example 78, 7-{5-(2,2-Difluoropropyl)-4-[4-(4-fluorophenoxy)pyridin-2-yl]-6-oxo-1,4,5,6-tetrahydropyrrolo[3,4-c]pyrazol-3-yl}-1,3-benzoxazol-2(3H)-one]		0.61
CC(F)(F)CN1C(=O)c2[nH]nc(-c3cccc(NC(N)=O)c3)c2C1c1ccc(Cl)cc1 (stereo not drawn) [Example 93, N-{3-[4-(4-Chlorophenyl)-5-(2,2-difluoropropyl)-6-oxo-1,4,5,6-tetrahydropyrrolo[3,4-c]pyrazol-3-yl]phenyl}urea]		7.2
